Test: Solubility in acetone (remark in suspension preparation)

Compound: Cc1ccc(C(=O)OOC(=O)c2ccc(C)cc2)cc1
- solubility in acetone: not very soluble in acetone

Reference: US20190321329A1, “FORMULATION FOR THE TREATMENT OF ACNE” (published 2019)
